Source: patent US20250332290A1, “PSMA-TARGETING LIGANDS FOR MULTIMODAL APPLICATIONS” (STICHTING RADBOUD UNIVERSITAIR MEDISCH CENTRUM, priority 2021, published 2025)

Protein sequences, listed by entry. Tags and fused reporters are not part of them.
UniProt Q04609, whole entry: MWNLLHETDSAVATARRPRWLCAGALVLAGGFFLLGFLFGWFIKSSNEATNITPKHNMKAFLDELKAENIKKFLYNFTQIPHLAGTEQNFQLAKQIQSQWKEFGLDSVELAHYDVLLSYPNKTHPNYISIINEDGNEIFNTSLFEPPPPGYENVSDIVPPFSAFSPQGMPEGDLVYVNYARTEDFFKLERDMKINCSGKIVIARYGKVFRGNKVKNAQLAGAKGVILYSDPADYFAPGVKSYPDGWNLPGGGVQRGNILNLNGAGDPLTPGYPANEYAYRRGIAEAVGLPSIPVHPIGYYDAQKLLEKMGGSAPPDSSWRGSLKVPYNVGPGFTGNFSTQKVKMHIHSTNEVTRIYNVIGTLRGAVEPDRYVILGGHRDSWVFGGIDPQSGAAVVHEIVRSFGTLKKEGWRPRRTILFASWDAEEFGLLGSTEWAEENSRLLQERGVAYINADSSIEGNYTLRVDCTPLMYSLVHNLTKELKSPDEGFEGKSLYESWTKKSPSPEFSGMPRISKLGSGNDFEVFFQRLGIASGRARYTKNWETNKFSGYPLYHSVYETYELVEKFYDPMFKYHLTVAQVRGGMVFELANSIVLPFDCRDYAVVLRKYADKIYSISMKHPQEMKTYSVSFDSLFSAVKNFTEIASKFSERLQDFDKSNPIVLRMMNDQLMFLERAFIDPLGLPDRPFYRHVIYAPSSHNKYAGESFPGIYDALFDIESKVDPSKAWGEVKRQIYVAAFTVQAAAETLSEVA

Columns and labels:
[1] = Lipophilicity, LogD of radiolabeled ligands in PBS (pH 7.4) / n-octanol; details: radiolabeled ligand, tested form: drawn as the indolium cation with four f
[2] = biological target: T1, PSMA (LS174T-PSMA cells) (Homo sapiens, UniProt Q04609); assay: Alternative internalization assay in LS174T-PSMA cells; details: 2 h at 37° C., tested form: drawn as the indolium cation with four f
[3] = biological target: T1, PSMA (LS174T-PSMA cells); assay: Competitive binding assay against 111In-labeled PSMA-617 using LS174T-PSMA cells; details: on ice 2 h, 111In-labeled PSMA-617 as competitor, unlabeled ligand 0.01-300 nM; tested form: drawn as the indolium cation with four f

Structure (SMILES): CC(=O)SCC(=O)NCC(=O)NCC(=O)NCC(=O)NC(CCCCn1nnc2c1-c1ccccc1CN(C(=O)CCNC(=O)CCCCC[N+]1=C(/C=C/C3=C(Oc4ccc(S(=O)(=O)O)cc4)C(=C/C=C4/N(CCCCS(=O)(=O)[O-])c5ccc(S(=O)(=O)O)cc5C4(C)C)/CCC3)C(C)(C)c3cc(S(=O)(=O)O)ccc31)c1ccccc1-2)C(=O)NCCCC[C@H](NC(=O)[C@H](CCC(=O)O)NC(=O)c1cccnc1)C(=O)NCc1ccc(C(=O)N[C@@H](Cc2ccc3ccccc3c2)C(=O)NCCCC[C@H](NC(=O)N[C@@H](CCC(=O)O)C(=O)O)C(=O)O)cc1 (stereo partly drawn)
- LogD [1]: -2.4
- Internalization Ratio (%) [2]: 71.9 +/− 13.7%
- IC50 [3]: 359 nM
